Drawing on ChEMBL document CHEMBL4725350, “2-Oxaadamant-1-yl Ureas as Soluble Epoxide Hydrolase Inhibitors: In Vivo Evaluation in a Murine Model of Acute Pancreatitis” (J Med Chem, 2020), this text covers IC50 for four compounds.

Sequences of proteins named here, by UniProt entry; tags and fusion partners are left off.
UniProt P34913, whole entry: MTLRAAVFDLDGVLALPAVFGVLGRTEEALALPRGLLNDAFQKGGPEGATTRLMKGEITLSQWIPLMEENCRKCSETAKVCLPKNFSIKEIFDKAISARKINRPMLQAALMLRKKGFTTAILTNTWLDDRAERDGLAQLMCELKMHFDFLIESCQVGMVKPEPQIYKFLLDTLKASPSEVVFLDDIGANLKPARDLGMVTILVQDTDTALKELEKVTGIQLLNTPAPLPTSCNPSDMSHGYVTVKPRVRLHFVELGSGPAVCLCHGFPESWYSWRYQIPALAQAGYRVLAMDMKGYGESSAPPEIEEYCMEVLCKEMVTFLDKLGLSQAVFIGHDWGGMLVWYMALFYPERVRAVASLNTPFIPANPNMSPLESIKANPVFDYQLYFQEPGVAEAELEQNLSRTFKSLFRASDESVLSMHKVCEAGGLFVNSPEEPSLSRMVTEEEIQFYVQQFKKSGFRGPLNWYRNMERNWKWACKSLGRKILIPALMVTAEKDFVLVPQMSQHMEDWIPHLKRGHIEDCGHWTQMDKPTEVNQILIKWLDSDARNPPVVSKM

This experiment addresses Bifunctional epoxide hydrolase 2 (Homo sapiens, UniProt P34913).

`CC(C)S(=O)(=O)N1CCC(NC(=O)NC23CC4CC(CC(C4)O2)C3)CC1` gave an IC50 of 0.197 µM.
The figure for `CC(=O)c1ccc(N2CCC(NC(=O)NC34CC5CC(CC(C5)O3)C4)CC2)cc1` is 0.0825 µM.
With `O=C(Nc1ccc(F)c(F)c1F)NC12CC3CC(CC(C3)O1)C2`, inhibition was half-maximal at 0.0213 µM (IC50).
As to `O=C(NC1CCN(C(=O)c2ccccc2F)CC1)NC12CC3CC(CC(C3)O1)C2`, the IC50 was 0.046 µM.
